In this experiment the target is 5-hydroxytryptamine receptor 1A (Rattus norvegicus, UniProt P19327). Briefly: Inhibitory affinity constant against 5-hydroxytryptamine 1A receptor.

By UniProt entry, the sequences of proteins in these tests, tags left out.
UniProt P19327, whole entry: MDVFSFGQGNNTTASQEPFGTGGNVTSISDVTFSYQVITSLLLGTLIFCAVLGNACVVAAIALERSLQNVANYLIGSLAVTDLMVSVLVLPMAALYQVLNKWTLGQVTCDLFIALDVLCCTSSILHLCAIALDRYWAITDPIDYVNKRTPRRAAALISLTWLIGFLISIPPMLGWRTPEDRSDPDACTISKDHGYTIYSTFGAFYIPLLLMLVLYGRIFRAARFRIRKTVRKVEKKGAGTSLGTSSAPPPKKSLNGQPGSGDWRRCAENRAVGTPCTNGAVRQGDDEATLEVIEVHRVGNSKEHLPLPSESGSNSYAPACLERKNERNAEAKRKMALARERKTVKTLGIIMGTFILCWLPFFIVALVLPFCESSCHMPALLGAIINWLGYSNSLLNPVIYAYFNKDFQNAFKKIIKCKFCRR

Results on 1 compound are retold here after ChEMBL document CHEMBL1128360 (J Med Chem, 1995).

The compound `O=C1CC2(CCCC2)CC(=O)N1CCCCN1CCN(c2ccc3ccccc3n2)CC1` yielded a Ki of 38.6 nM.

The term Ki denotes the dissociation constant of the complex between target and ligand, obtained from inhibition or displacement. Read a high Ki as lower affinity.
